Source: ChEMBL document CHEMBL1146418, “A new flavone C-glycoside and antiplatelet and vasorelaxing flavones from Gentiana arisanensis” (J Nat Prod, 1997)

How the values were obtained:
[1] = system: Aorta; test: Inhibition of Ca2+-induced Wistar rat thoracic aorta contraction in high K+ medium pretreated 15 mins before addition of Ca2+ and K+; format: functional, tissue-based
[2] = system: Platelet; test: Inhibition of arachidonic acid-induced platelet aggregation in rabbit plasma preincubated 3 mins before addition of thrombin by turbidimetric method; format: functional, cell-free; conditions: Oryctolagus cuniculus
[3] = system: Aorta; test: Inhibition of noradrenaline-induced Wistar rat thoracic aorta phasic contraction in high K+ medium pretreated 15 mins before addition of Ca2+ and K+ relative to control; format: functional, tissue-based
[4] = system: Aorta; test: Inhibition of noradrenaline-induced Wistar rat thoracic aorta tonic contraction in high K+ medium pretreated 15 mins before addition of Ca2+ and K+ relative to control; format: functional, tissue-based

Measured: Activity

O=c1cc(-c2ccc(O)c(O)c2)oc2cc(O)cc(O)c12 [LUTEOLIN]
active: [1] Dose-dependent effect | [2] Dose-dependent effect | [3] Dose-dependent effect | [4] Dose-dependent effect
